The numbers were not newly measured in publication PMC8136485, “Were Ancestral Proteins Less Specific?” (Molecular Biology and Evolution, 2021), which cites them from elsewhere.

Data set [1] concerns the target Annexin I peptide (Homo sapiens) (UniProt P04083). The settings on record: cited from earlier work.
For data set [2], the target named is SIP peptide (Homo sapiens) (UniProt Q9HB71). Conditions: cited from earlier work.

In the case of hA6 (S100A6) (from UniProt P06703), the Kd in data set [1] is 17 µM; in data set [2], 26 µM.

As a reminder, the Kd is the equilibrium constant for the complex coming apart.
